AlphaSeq binding of Ab-95 light chain variants to a spike HR2 peptide

From the AlphaSeq antibody data of Engelhart et al. 2022 (doi:10.1038/s41597-022-01779-4), copy in the FLAb collection.

Binding partner: SARS-CoV-2 spike HR2 peptide, sequence PDVDLGDISGINAS.

Each scFv is VH, a 15-residue (Gly4Ser)3 linker, VL, as in the parent Ab-95, and differs from it in the CDRs of the light chain only.
VH: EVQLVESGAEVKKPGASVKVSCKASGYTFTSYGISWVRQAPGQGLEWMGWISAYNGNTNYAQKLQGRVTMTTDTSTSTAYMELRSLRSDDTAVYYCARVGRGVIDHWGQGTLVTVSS
VL: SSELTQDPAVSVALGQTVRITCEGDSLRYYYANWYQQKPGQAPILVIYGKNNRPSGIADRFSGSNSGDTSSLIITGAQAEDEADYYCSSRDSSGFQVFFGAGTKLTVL

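Phage display of a naive human antibody library on the peptide gave the parent. The library (AAYL52) carries one to three amino acid substitutions per variant, with no insertions or deletions. The assay is AlphaSeq: two haploid yeast populations carry antibody and antigen on their surface. Binding brings cells together so that they mate, and sequencing counts the barcode pairs among the diploids. A regression on co-assayed BCL2-family reference pairs converts the normalised counts of each replicate to an apparent Kd. Each pool was mated in three replicate cultures.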

Each variant is given by its three light chain CDRs, as the data file delimits them; those of the parent are EGDSLRYYYAN, GKNNRPS, SSRDSSGFQVF. Numbers give log10(Kd / nM), so 0 is 1 nM and 3 is 1 µM. Smaller is tighter. Averages over replicates are reported, and they cover detected replicates only. "nd" marks a missing value. The strain was present, yet no cells mated with the target were sequenced in any replicate, which points to weak or no binding. As a blank, each scFv also met three strains without target: over library AAYL52, 28% of these pairings were detected, typically at 3.91 and seldom below 2.90.

CDR-L1,CDR-L2,CDR-L3,"log10 Kd (nM), mean",replicates with signal
EGDSLKYYYAN,GKNNVPS,SSRDSSGCQVF,3.97,1 of 3
EGDPLRYYYAN,GKNNVPS,LSRDSSGFQVF,4.13,1 of 3
EGDSLRYYYAN,GANNRPS,SSRDSSVFFVF,2.36,3 of 3
EGDSLRYYKAN,GKNNRPS,SSRSSSGFSVF,2.15,3 of 3
EGDSLRYYYVN,GKNNRPS,SSRRSSGFQVF,3.60,3 of 3
EGDSLRYYYAY,GKNNRPS,SSRDTSEFQVF,4.03,2 of 3
EGDSLRYYYAN,GKNCRPS,SSYDSSGFQVW,1.96,3 of 3
YGDPLRYYYAN,GKNNRPS,SSRDSSGFQVF,2.30,3 of 3
GGDSLRYYYAN,GKNNRPY,SFRDSSGFQVF,2.83,2 of 3
EGDSLRYYYAN,GKNNRPH,SSRDNSGFEVF,2.60,3 of 3
EMDSLRYYYAR,GKNNRPS,QSRDSSGFQVF,3.66,2 of 3
EGTSLRYDYAN,GKNNRPS,SSRDSHGFQVF,2.24,3 of 3
ETDSLRYYYAN,GKINRPS,SSYDSSGFQVF,5.36,1 of 3
EQDSCRYYYAN,GKNNRKS,SSRDSSGFQVF,4.42,1 of 3
EGDSLRYYGAN,GKNNIPS,SFRDSSGFQVF,3.27,2 of 3
EGDSLRYYYAN,PKNNRPS,SSRESSGFQVR,4.98,1 of 3
EGDSLRYKYAN,GKNNRPS,TSRDSSGFQVD,2.47,3 of 3
EGDSLRYNMAN,DKNNRPS,SSRDSSGFQVF,0.67,3 of 3
EGDSLRYYYPN,GKNNLPS,SSRDSDGFQVF,2.56,3 of 3
EGDALREYYAN,GKNKRPS,SSRDSSGFQVF,2.94,3 of 3
EGDSLRYNYAV,GKNNRPS,ASRDSSGFQVF,1.01,3 of 3
EGDSLRYYYAN,GKNARPS,SWRDSSGFQAF,nd,0 of 3
EWDSTRYYYAN,GKNNRPA,SSRDSSGFQVF,3.38,3 of 3
EGDSLRYYIAN,GKNNRPK,SSRDSSGFQVF,2.91,3 of 3
CGDSLRYYYAN,GKNDRPS,SSRDYSGFQVF,2.22,3 of 3

Further variants, results first:

"log10 Kd (nM), mean",replicates with signal,CDR-L1,CDR-L2,CDR-L3
3.98,1 of 3,EFDSLRYYYAN,GKNNRPS,SSDDSSGHQVF
3.43,3 of 3,EGDSLRPYYAN,GKNNRPS,SSRDSEGFQVQ
3.98,1 of 3,ECDSLRYYYAN,GKINRPS,SIRDSSGFQVF
3.99,3 of 3,EGDSLRYYYEN,GKNNRPS,ESRDSSGFIVF
4.31,1 of 3,EGDSLRYYDEN,GKNNRPS,SSRDSSMFQVF
3.51,3 of 3,EGDSLRYYQAR,GKNWRPS,SSRDSSGFQVF
2.69,3 of 3,EGDSLRYYNQN,GKNNRPS,SARDSSGFQVF
2.73,3 of 3,RGHSLRYYYAN,GKNGRPS,SSRDSSGFQVF
2.92,1 of 3,EEDYLRYYYAN,GKNNRPS,KSRDSSGFQVF
4.16,1 of 3,EGDMLRYYYAN,GKYNRPS,SSRDSSGFQMF
2.42,3 of 3,EGDSLRMYYAN,GKNNRPS,SSRDRSGFQVF
2.42,3 of 3,QGDSLRYYYAN,GKNNRPS,SSRDLSGSQVF
4.96,1 of 3,EGDSMRYYYAN,GKNNSPS,SSMDSSGFQVF
4.31,1 of 3,EGISLRYMYAN,GKNNRPS,SKRDSSGFQVF
5.28,1 of 3,EGDSLRYYYAN,GKNGRPS,SSRDSGGFQVC
3.38,3 of 3,EGDSLRAYYAN,GKNNRPS,SSRDSSGFDVF
3.89,3 of 3,EGDSLRQYKAN,GKNNRPS,SSRISSGFQVF
3.60,3 of 3,EHDSLRYYWAN,GKNNRPS,SSRDSSGFQHF
2.61,3 of 3,EGDSLRYYYAN,GKNNRPS,SSRGSTGFQVF
nd,0 of 3,EGDSLCYYYEW,GKNNRPS,SSRDSSGFQVF
3.93,3 of 3,EADSLRYYHAN,GKNNRPS,SSRPSSGFQVF
1.69,3 of 3,EGDSLRYHYAN,GKNNRPS,SHRDSSGFQVF
3.34,2 of 3,EGDSLRYYYSN,GKNNRPS,SSRDFSGFQNF
1.61,3 of 3,EGLSLRRYYAN,GKNNRPS,SSRDSSGFQVF
3.54,2 of 3,EGFSLRYYYLN,GKNNRPS,SSRDSPGFQVF
1.86,3 of 3,EGDSLRYYYAN,GKNNRPS,SSRDSTGFRWF

The 8 strongest on average among those seen in every replicate, once more:

{"CDR-L1": "EGDSLRYNMAN", "CDR-L2": "DKNNRPS", "CDR-L3": "SSRDSSGFQVF", "log10 Kd (nM), mean": "0.67", "replicates with signal": "3 of 3"}
{"CDR-L1": "EGDSLRYNYAV", "CDR-L2": "GKNNRPS", "CDR-L3": "ASRDSSGFQVF", "log10 Kd (nM), mean": "1.01", "replicates with signal": "3 of 3"}
{"CDR-L1": "EGLSLRRYYAN", "CDR-L2": "GKNNRPS", "CDR-L3": "SSRDSSGFQVF", "log10 Kd (nM), mean": "1.61", "replicates with signal": "3 of 3"}
{"CDR-L1": "EGDSLRYHYAN", "CDR-L2": "GKNNRPS", "CDR-L3": "SHRDSSGFQVF", "log10 Kd (nM), mean": "1.69", "replicates with signal": "3 of 3"}
{"CDR-L1": "EGDSLRYYYAN", "CDR-L2": "GKNNRPS", "CDR-L3": "SSRDSTGFRWF", "log10 Kd (nM), mean": "1.86", "replicates with signal": "3 of 3"}
{"CDR-L1": "EGDSLRYYYAN", "CDR-L2": "GKNCRPS", "CDR-L3": "SSYDSSGFQVW", "log10 Kd (nM), mean": "1.96", "replicates with signal": "3 of 3"}
{"CDR-L1": "EGDSLRYYKAN", "CDR-L2": "GKNNRPS", "CDR-L3": "SSRSSSGFSVF", "log10 Kd (nM), mean": "2.15", "replicates with signal": "3 of 3"}
{"CDR-L1": "CGDSLRYYYAN", "CDR-L2": "GKNDRPS", "CDR-L3": "SSRDYSGFQVF", "log10 Kd (nM), mean": "2.22", "replicates with signal": "3 of 3"}